Molecular target: CD44-IgG1Fc fusion protein (R & D systems) (human) (UniProt P16070)
Test: competition ELISA, CD44-IgG1Fc coated at 1 µg/mL, rhPRG4 at 5 µg/mL, competitor HMW HA or MMW HA (not a protein), detection with Mab 9G3

recombinant human proteoglycan 4 (rhPRG4) (from UniProt Q92954 25-1404) (ligand)
percent reduction of binding with excess hyaluronic acid: 50%
